Test results taken from ChEMBL document CHEMBL2346630 (J Med Chem, 2013).

Sequences of proteins named here, by UniProt entry; tags and fusion partners are left off. A change or cut given only in a name is not applied to a line headed by its entry.
UniProt P50613: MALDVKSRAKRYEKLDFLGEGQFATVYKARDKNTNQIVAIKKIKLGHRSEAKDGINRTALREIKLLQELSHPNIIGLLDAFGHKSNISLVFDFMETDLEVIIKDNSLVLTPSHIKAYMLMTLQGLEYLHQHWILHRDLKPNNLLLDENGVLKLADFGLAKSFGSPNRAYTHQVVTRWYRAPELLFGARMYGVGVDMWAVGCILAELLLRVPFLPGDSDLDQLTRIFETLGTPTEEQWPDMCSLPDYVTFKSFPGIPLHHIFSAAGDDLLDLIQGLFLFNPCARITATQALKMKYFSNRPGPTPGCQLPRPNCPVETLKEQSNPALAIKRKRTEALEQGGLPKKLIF

Molecular target: Cyclin-dependent kinase 7/ cyclin H (Homo sapiens, UniProt P50613)
Assay: biochemical

- Ki: 91 nM
SMILES: CNc1nc(C)c(-c2nc(Nc3cccc(S(N)(=O)=O)c3)ncc2F)s1 [ASNUCICLIB]
